Values quoted from earlier work in US20150313892A1, “PHARMACEUTICAL COMPOSITIONS FOR TREATING PAIN ASSOCIATED WITH DYSMENORRHEA” (priority 2014, published 2015).

The chains behind the UniProt entries cited, without tags or fusion partners.
UniProt P35372, whole entry: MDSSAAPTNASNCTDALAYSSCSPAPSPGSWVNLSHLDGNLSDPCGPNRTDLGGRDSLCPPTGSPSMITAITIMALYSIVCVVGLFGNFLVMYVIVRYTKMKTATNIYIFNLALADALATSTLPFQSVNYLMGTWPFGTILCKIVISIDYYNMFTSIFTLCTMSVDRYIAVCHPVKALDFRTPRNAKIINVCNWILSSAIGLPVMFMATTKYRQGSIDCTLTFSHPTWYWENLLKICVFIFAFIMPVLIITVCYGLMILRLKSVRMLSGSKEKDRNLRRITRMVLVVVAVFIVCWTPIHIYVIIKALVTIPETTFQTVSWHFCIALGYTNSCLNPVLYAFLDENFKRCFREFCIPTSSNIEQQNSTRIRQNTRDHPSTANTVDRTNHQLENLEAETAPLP

Legend:
μ-opioid = μ-opioid (Homo sapiens, UniProt P35372); conditions: read-out: Binding Constant Ki, μ-opioid; cited from earlier work
[1] = test system: common receptor sites (benzodiazepine, glutamate, NMDA, adrenergic, adenosine, cholinergic, dopamine, histamine H1, serotonin, opiate, cannabinoid 1, calcium …); conditions: concentrations up to 100 μM; cited from earlier work

Structure (SMILES)	Ki (μ-opioid) [nM]	affinity for other common receptor sites [1]
CN1CC[C@@]23CCCC[C@@H]2[C@@H]1Cc1ccc(O)cc13 [Dextrorphan]	420	–
NCC1(CC(=O)O)CCCCC1 [Gabapentin]	–	did not exhibit affinity
CN1CC[C@]23CCCC[C@H]2[C@H]1Cc1ccc(O)cc13 [Levorphanol]	0.42	–
